This is an account of results in US11198699B2 (ALIGOS THERAPEUTICS, INC., priority 2019, dated 2021).

Protein sequences, listed by entry. Tags and fused reporters are not part of them.
UniProt O14744, whole entry: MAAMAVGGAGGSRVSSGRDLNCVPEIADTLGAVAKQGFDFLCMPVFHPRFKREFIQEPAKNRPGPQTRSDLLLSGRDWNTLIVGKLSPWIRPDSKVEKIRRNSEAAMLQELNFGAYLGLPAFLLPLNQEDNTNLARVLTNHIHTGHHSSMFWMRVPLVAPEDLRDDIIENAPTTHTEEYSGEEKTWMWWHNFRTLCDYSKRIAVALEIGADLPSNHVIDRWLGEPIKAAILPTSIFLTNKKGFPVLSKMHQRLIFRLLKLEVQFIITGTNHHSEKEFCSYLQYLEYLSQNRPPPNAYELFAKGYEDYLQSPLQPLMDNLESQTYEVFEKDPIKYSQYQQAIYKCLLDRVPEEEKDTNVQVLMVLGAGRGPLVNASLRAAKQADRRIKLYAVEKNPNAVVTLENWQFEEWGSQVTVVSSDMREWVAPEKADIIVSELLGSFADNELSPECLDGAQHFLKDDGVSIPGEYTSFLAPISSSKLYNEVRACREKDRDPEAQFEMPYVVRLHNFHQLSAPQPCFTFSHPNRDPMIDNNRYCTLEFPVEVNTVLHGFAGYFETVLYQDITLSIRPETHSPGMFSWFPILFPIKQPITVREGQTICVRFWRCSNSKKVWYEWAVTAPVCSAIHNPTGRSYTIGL
UniProt Q9BQA1, whole entry partner: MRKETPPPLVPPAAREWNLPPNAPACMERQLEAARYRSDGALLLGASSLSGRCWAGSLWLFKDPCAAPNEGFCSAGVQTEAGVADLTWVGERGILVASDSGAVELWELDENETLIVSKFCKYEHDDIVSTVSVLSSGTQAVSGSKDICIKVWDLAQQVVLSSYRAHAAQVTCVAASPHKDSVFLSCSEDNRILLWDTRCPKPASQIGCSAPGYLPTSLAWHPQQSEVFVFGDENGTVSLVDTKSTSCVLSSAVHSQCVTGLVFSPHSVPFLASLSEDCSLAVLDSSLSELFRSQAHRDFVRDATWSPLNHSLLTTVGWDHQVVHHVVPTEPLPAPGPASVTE

The structures appear in SMILES notation. Some results are limits rather than exact numbers.

One assay concerns the target PRMT5/MEP50 (Homo sapiens (Human), UniProt O14744). As to the kind of experiment: PRMT5/MEP50 enzyme inhibition assay, Assay 2 (384-well, MALDI mass spectrometry, histone H4 1-21 peptide). The conditions noted are these: read-out: Assay 2 IC50; 1 μM SAM, 0.1 μM histone H4 1-21 peptide, 18-hour incubation at rt. The procedure: Compounds were tested for inhibition of methyltransferase activity in 384-well plate assay format using mass spectrometry technology. In this enzyme inhibition assay, compounds were tested in a 11-dose IC50 mode with 3-serial dilution, in duplicate, starting at 1, 10, or 100 μM. Reactions were carried out at 1 μM SAM and 0.1 μM histone H4 1-21 peptide as substrates for methyl transfer. Following an 18-hour incubation at rt, the reaction was stopped with 0.5% formic acid. Products of the reaction were captured while unreacted substrates were washed away, prior to MALDI mass spectrometry detection and analysis. Percent enzyme activity was calculated based on no inhibitor DMSO control as 100% activity. EC50 values were determined in GraphPad Prism 8 using the [inhibitor] vs. response—Variable slope (four parameters) function.
Compounds of Formula (I) show activity in this assay. A value of ‘A’ in the table below indicates an IC50 of <1 nM, a value of ‘B’ indicates an IC50≥1 nM to ≤100 nM, and a value of ‘C’ indicates an IC50 value of >100 nM.

The subject of another assay is HepG2 hepatoma cells. Put plainly: Cell proliferation assay, HepG2 (CellTiter-Glo, 7 days). To be noted: read-out: EC50 HepG2; HepG2, 7 days, CellTiter-Glo 2.0. How it is done:
(§1) HepG2 hepatoma cells (ATCC, HB-8065) were maintained in DMEM with high glucose (Lonza, 12-914F) supplemented with 10% fetal bovine serum (FBS; Biowest, S181B-500) and 2 mM L-glutamine (Biowest, X0551-100) at 37° C. and 5% CO2. A549 lung carcinoma cells (ATCC, CCL-185) were maintained in F-12K medium (ThermoFisher 21127030) supplemented with 10% FBS at 37° C. and 5% CO2. Exponentially growing HepG2 or A549 were plated in white, clear-bottom 96-well plates (Corning, 3903) at a cell density of 2000 (HepG2) or 350 (A549) cells per well in 199 μL of HepG2 medium. Next, 1 μL of a 5-fold 9-point dilution series of test compound in DMSO was added to the different wells. Cells were incubated at 37° C. 5% CO2 for 7 days. Cell viability was assessed on day 7 with the CellTiter-Glo 2.0 Cell Viability assay kit (Promega, G9243) to quantify the intracellular amounts of ATP: first, 100 μL of cell culture medium was removed from each well, next 100 μL of CellTiter-Glo® 2.0 Reagent was added and plates were shaken for 2 minutes on an orbital shaker. After 10 minutes stabilization at room temperature, read-out was performed on a ThermoFisher VarioSkan Lux plate reader. Counts were normalized to DMSO control (0% inhibition) and the cytotoxic control (100% inhibition) and EC50 values were determined in GraphPad Prism 8 using the [Agonist] vs. response—Variable slope (four parameters) function. […]
A general note: In ATP-based viability assays light output follows the ATP content of the culture.

The subject of assay [1] is A549 lung carcinoma cells. Put plainly: Cell proliferation assay, A549 (CellTiter-Glo, 7 days). To be noted: read-out: EC50 A549; A549, 7 days, CellTiter-Glo 2.0. How it is done: as §1

Broadly, the IC50 is the concentration that gives 50% inhibition. Broadly, the EC50 is the concentration that produces a half-maximal response.

Regarding `C[C@]1(CCc2ccc3cc(Br)c(N)nc3c2)C[C@@H](c2ccc3c(N)ncnn23)[C@H](O)[C@@H]1O`, the IC50 on PRMT5/MEP50 is below 1 nM.
As for `C[C@]1(CCc2ccc3cc(Br)c(N)nc3c2)C[C@@H](n2ccc3c(N)ncc(F)c32)[C@H](O)[C@@H]1O`, the EC50 (in the assay on HepG2 hepatoma cells; in assay [1]) was below 20 nM in each case.
For the molecule `CCCCCOC(=O)Nc1ccc2ccc(CC[C@@]3(C)C[C@@H](c4ccc5c(N)ncnn45)[C@H](O)[C@@H]3O)cc2n1`, the IC50 at PRMT5/MEP50 was above 100 nM. In addition, the EC50 (with HepG2 hepatoma cells; in assay [1]) was 20 to 100 nM throughout.
